Assay results published in PubChem BioAssay (EPA / NIEHS).
Only a part is listed here, and it is no random draw. Records with an inconclusive call do not appear. Active and inactive are the calls of the source. How the source made its calls: active means hit-call score of the fitted dose curve at least 0.9, where 1 is the maximum; inconclusive means response in the unintended direction; inactive means score below 0.9.

Sequences of proteins named here, by UniProt entry; tags and fusion partners are left off.
UniProt P31751, whole entry: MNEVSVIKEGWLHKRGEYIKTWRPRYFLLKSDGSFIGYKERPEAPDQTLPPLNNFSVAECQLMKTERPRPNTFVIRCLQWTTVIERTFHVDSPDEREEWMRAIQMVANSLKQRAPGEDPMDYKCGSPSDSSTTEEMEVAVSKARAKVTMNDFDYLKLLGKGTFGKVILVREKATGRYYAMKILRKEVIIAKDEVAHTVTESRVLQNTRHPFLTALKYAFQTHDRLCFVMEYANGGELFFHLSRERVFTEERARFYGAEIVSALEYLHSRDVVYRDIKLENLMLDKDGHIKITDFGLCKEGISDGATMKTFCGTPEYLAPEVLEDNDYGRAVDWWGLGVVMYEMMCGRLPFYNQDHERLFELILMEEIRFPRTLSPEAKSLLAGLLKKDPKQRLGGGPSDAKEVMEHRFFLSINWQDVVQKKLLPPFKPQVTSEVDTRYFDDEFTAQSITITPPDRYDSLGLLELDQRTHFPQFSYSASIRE
UniProt P27361, whole entry: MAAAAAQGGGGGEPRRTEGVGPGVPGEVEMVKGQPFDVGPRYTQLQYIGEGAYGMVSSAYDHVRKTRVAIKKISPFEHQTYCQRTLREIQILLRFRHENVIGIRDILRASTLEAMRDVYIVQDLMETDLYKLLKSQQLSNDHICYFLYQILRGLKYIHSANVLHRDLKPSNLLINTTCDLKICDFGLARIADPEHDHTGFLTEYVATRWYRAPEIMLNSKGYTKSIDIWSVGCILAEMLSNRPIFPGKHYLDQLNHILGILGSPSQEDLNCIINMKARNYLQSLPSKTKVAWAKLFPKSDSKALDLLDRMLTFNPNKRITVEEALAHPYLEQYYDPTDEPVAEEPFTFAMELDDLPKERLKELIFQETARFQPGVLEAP
UniProt O96013, whole entry: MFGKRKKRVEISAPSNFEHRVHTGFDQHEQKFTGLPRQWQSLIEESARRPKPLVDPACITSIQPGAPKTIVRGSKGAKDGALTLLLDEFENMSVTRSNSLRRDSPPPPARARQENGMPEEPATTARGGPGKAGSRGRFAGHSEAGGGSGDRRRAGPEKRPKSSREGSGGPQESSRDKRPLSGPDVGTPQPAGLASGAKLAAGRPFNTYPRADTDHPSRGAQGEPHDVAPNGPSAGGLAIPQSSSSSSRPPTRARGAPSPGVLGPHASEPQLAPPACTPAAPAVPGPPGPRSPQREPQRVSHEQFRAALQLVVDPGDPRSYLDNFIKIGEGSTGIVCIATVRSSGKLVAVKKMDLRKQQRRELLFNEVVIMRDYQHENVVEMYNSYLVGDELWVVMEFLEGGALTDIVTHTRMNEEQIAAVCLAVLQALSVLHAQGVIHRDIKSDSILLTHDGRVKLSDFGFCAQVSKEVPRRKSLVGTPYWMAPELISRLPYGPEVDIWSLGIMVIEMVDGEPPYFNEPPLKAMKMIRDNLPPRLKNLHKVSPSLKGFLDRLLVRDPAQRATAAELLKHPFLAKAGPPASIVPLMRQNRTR
UniProt P60484, whole entry: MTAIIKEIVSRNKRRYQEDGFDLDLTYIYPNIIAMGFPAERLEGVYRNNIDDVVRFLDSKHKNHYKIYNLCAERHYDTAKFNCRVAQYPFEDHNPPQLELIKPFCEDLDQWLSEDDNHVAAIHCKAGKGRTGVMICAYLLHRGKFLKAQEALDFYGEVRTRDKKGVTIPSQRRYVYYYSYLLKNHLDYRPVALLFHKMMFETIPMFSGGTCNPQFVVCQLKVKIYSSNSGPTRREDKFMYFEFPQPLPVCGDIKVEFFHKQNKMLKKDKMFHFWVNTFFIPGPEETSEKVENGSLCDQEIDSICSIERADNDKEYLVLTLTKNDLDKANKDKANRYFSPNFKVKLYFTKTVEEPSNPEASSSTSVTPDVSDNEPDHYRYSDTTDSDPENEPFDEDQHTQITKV
UniProt P12931, whole entry: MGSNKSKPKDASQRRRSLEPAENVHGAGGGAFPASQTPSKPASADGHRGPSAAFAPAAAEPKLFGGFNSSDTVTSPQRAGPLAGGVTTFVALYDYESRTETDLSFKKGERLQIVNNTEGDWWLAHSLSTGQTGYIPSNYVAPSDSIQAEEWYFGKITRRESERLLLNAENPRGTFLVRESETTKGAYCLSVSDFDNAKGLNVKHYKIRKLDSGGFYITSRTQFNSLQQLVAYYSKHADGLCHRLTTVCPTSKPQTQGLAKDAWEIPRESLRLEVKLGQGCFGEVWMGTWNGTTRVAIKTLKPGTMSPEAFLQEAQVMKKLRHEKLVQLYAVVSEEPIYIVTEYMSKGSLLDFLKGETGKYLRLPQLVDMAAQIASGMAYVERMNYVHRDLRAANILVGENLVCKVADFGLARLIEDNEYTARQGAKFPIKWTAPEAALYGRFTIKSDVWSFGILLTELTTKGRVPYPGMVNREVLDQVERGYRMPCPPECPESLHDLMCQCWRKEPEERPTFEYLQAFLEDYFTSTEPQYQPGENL
UniProt P06276, whole entry: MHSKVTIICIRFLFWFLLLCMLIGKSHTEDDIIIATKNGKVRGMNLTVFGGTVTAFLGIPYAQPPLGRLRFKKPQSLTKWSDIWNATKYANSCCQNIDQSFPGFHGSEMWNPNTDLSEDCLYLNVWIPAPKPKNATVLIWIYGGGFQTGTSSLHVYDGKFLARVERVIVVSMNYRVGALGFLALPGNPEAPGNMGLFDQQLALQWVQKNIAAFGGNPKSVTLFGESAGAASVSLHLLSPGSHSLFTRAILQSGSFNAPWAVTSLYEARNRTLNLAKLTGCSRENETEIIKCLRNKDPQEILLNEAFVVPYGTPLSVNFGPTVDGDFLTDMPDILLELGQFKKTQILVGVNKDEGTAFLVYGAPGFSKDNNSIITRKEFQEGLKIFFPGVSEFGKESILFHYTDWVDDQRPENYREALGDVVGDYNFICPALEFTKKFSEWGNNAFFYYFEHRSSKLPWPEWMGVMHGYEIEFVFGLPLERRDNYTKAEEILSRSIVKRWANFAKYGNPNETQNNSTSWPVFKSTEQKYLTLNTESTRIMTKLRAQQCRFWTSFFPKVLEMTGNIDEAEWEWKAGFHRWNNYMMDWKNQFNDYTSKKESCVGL
UniProt P03956, whole entry: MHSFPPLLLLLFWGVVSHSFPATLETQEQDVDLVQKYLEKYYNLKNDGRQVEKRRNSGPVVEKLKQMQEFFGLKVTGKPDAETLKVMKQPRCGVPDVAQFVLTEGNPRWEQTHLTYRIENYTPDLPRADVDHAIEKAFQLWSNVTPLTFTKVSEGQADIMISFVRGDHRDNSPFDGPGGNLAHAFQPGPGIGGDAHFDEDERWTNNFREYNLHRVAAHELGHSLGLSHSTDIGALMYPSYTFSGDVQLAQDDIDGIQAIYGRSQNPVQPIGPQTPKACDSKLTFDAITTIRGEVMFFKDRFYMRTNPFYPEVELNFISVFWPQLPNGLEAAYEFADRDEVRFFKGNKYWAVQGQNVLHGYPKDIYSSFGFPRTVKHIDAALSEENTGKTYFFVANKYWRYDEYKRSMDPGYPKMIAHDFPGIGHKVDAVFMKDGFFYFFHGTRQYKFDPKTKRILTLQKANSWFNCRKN
UniProt Q9Y233, whole entry: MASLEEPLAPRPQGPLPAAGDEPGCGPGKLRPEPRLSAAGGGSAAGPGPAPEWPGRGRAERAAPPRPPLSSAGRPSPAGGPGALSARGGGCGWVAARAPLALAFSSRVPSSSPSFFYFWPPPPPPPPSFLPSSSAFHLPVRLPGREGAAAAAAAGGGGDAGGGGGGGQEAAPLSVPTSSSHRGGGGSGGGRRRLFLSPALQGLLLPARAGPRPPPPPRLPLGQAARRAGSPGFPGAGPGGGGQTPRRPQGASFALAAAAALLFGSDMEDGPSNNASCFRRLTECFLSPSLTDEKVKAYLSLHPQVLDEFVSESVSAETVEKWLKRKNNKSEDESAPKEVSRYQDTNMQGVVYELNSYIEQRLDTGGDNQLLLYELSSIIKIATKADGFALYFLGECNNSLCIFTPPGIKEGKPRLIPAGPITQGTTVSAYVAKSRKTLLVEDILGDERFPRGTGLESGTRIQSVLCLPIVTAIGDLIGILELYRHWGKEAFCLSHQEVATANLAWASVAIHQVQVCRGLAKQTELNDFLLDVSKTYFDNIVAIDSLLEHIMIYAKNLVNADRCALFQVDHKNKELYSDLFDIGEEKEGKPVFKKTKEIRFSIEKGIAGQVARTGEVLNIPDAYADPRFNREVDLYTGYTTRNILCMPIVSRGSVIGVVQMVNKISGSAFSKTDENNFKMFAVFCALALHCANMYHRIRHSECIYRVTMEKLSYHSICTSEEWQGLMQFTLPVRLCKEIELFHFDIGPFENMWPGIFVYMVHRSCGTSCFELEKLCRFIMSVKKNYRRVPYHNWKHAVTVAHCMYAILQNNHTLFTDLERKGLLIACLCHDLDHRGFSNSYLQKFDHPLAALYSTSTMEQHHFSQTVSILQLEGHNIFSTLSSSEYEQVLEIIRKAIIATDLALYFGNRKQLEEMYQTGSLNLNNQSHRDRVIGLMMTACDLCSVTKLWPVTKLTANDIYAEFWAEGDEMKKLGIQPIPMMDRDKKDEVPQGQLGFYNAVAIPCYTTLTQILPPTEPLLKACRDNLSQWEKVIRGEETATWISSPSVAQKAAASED
UniProt P29317, whole entry: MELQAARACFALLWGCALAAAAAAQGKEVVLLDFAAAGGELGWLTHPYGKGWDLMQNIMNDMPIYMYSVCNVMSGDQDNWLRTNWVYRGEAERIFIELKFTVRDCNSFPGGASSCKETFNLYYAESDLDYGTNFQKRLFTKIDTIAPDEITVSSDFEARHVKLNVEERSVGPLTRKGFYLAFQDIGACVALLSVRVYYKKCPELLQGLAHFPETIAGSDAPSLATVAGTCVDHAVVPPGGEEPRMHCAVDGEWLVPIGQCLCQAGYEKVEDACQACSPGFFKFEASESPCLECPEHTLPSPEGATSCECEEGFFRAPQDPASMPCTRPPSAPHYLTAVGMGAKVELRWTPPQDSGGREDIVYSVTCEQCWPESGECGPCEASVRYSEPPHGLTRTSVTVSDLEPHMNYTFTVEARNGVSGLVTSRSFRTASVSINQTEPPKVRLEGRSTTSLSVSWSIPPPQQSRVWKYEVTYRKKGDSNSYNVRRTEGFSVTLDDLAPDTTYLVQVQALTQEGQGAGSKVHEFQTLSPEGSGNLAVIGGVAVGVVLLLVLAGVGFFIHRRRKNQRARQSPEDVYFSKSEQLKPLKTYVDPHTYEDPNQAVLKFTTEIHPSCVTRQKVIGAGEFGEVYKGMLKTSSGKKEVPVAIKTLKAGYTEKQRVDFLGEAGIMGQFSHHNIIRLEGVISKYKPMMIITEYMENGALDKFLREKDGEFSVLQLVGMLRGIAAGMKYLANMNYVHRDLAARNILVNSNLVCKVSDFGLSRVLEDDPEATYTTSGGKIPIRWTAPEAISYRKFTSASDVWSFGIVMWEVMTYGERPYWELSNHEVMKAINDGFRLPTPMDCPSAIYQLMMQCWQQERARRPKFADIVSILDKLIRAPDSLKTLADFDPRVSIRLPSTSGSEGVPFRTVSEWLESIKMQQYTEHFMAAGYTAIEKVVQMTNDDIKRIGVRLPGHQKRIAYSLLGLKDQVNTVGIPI
UniProt P28482, whole entry: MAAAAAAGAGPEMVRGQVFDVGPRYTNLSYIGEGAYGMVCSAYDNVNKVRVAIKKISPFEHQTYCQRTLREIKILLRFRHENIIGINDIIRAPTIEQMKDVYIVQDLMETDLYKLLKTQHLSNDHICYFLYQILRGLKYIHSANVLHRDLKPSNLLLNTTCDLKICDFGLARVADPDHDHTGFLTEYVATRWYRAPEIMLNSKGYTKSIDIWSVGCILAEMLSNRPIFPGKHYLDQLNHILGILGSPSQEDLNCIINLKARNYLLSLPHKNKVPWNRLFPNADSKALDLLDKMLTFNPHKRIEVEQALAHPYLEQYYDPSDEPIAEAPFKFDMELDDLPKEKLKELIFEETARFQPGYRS
UniProt P35813, whole entry: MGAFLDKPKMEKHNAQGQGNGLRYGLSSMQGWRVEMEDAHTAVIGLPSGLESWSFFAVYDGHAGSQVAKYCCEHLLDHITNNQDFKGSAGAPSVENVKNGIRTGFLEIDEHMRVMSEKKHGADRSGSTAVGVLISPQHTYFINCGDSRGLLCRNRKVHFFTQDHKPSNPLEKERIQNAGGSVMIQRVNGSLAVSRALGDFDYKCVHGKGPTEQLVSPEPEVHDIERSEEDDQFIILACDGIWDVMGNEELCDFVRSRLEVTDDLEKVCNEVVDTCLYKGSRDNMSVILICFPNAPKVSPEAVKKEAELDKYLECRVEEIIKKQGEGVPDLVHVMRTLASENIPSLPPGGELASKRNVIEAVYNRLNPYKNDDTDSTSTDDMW
UniProt P67775, whole entry: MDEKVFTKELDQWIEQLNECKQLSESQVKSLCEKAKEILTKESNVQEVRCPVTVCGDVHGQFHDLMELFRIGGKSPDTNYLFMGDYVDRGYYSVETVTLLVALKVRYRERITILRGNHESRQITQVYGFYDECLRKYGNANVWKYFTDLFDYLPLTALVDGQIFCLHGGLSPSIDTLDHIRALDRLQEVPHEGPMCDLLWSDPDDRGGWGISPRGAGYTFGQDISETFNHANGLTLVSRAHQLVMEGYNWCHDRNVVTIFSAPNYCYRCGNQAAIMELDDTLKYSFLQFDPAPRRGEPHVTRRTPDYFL

Columns and labels:
[1] = target: human AKT serine/threonine Kinase 2 (AKT2), AKT2 (gene 208) (UniProt P31751); assay: NVS_ENZ_hAKT2: NovaScreen (NVS) Enzymatic Assay for human AKT serine/threonine Kinase 2 (AKT2) (AID 2283141)
Summary of the method: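 Cell-free fluorescence/electrophoretic mobility shift readout of recombinant human AKT2 activity, 1 h after chemical dosing. Duplicate primary screen at 25 uM, then singleton concentration-response up to 50 uM; loss of signal versus DMSO baseline.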

[2] = target: human Aurora Kinase A - serine/threonine-protein Kinase 6 (AurA), AURKA (gene 6790) (UniProt O14965); assay: NVS_ENZ_hAurA: NovaScreen (NVS) Enzymatic Assay for human Aurora Kinase A - serine/threonine-protein Kinase 6 (AurA) (AID 2283142)
Summary of the method: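 Cell-free enzymatic assay with human Aurora A, 1 hour after dosing. Fluorescent substrate turnover detected after electrophoretic mobility shift separation of substrate and product. Screened at 25 uM, actives retested in concentration-response up to 50 uM.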

[3] = target: human Colony Stimulating Factor 1 Receptor (CSF1R), CSF1R (gene 1436) (UniProt P07333); assay: NVS_ENZ_hCSF1R: NovaScreen (NVS) Enzymatic Assay for human Colony Stimulating Factor 1 Receptor (CSF1R) (AID 2283150)
Summary of the method: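 Cell-free recombinant human CSF1R kinase with fluorescent substrate, product separated by electrophoretic mobility shift; read 1 h after dosing. Primary screen at 25 uM in duplicate, actives then in concentration-response up to 50 uM, relative to DMSO.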

[4] = target: human Epidermal Growth Factor Receptor (EGFR), EGFR (gene 1956) (UniProt P00533); assay: NVS_ENZ_hEGFR: NovaScreen (NVS) Enzymatic Assay for human Epidermal Growth Factor Receptor (EGFR) (AID 2283151)
Summary of the method: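 Cell-free kinase assay, fluorescence plus electrophoretic mobility shift separating substrate and product, read 1 hour after dosing; loss of signal vs DMSO. Duplicate screen at 25 uM, then concentration-response to 50 uM.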

[5] = target: Mitogen-activated protein kinase 3 (Homo sapiens) (UniProt P27361); assay: NVS_ENZ_hMAPK3: NovaScreen (NVS) Enzymatic Assay for human Mitogen-Activated Protein Kinase 3 (MAPK 3) (AID 2283177)
Summary of the method: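 Cell-free enzymatic assay with recombinant protein and specific substrate; fluorescence and electrophoretic mobility shift read-out 1 h after dosing. Primary screen duplicate at 25 uM; actives then run in concentration-response up to 50 uM, loss of signal versus DMSO.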

[6] = target: human p21 Activated Kinase 4 (PAK4), PAK4 (gene 10298) (UniProt O96013); assay: NVS_ENZ_hPAK4: NovaScreen (NVS) Enzymatic Assay for human p21 Activated Kinase 4 (PAK4) (AID 2283189)
Summary of the method: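 Cell-free recombinant human PAK4 activity assay; fluorescent substrate and product separated by electrophoretic mobility shift, read 1 h after dosing. Initially tested in duplicate at 25 uM, relative to DMSO baseline.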

[7] = target: human Phosphatase and Tensin Homolog (PTEN), PTEN (gene 5728) (UniProt P60484); assay: NVS_ENZ_hPTEN: NovaScreen (NVS) Enzymatic Assay for human Phosphatase and Tensin Homolog (PTEN) (AID 2283203)
Summary of the method: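 Cell-free recombinant human PTEN with fluorescent substrate; product separated by electrophoretic mobility shift and read by fluorescence 1 h after dosing. Primary screen in duplicate at 25 uM, actives followed in concentration series versus DMSO.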

[8] = target: human SRC Proto-Oncogene, Non-receptor Tyrosine Kinase (SRC), SRC (gene 6714) (UniProt P12931); assay: NVS_ENZ_hSRC: NovaScreen (NVS) Enzymatic Assay for human SRC Proto-Oncogene, Non-receptor Tyrosine Kinase (SRC) (AID 2283223)
Summary of the method: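 Cell-free kinase activity assay with fluorescent substrate, product separated by electrophoretic mobility shift, read 1 h after dosing. Duplicate single point at 25 uM, then concentration-response up to 50 uM; loss of signal versus DMSO.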

[9] = target: human Esterase Plasma (ES), BCHE (gene 590) (UniProt P06276); assay: NVS_ENZ_hES: NovaScreen (NVS) Enzymatic Assay for human Esterase Plasma (ES) (AID 2283157)
Summary of the method: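 Chemicals were added to plasma-extracted human enzyme in a cell-free format, and activity was read colorimetrically after 0.25 hour. Activity loss was referenced to DMSO; concentration-response top dose was 50 uM.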

[10] = target: human Matrix Metalloproteinase-1 (MMP1), MMP1 (gene 4312) (UniProt P03956); assay: NVS_ENZ_hMMP1: NovaScreen (NVS) Enzymatic Assay for human Matrix Metalloproteinase-1 (MMP1) (AID 2283181)
Summary of the method: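 Human MMP1 enzyme activity measured by fluorescence 1 h after dosing, cell-free, with a specific substrate. Screened in duplicate at 25 uM; hits (e.g. 30% inhibition) run in concentration-response up to 50 uM; loss of signal versus DMSO.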

[11] = target: human Matrix Metalloproteinase-3 (MMP3), MMP3 (gene 4314) (UniProt P08254); assay: NVS_ENZ_hMMP3: NovaScreen (NVS) Enzymatic Assay for human Matrix Metalloproteinase-3 (MMP3) (AID 2283185)
Summary of the method: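 Cell-free recombinant human MMP3 activity, fluorescence intensity read 1 h after dosing. Primary screen duplicate at 25 uM, actives retested in concentration series; loss of signal vs DMSO baseline.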

[12] = target: human Protein Tyrosine Phosphatase Receptor Type C (PTPRC), PTPRC (gene 5788) (UniProt P08575); assay: NVS_ENZ_hPTPRC: NovaScreen (NVS) Enzymatic Assay for human Protein Tyrosine Phosphatase Receptor Type C (PTPRC) (AID 2283212)
Summary of the method: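 Yeast-extracted human PTPRC used in a cell-free colorimetric enzyme activity read-out, 1 h after dosing. Primary screen in duplicate at 25 uM; actives rerun in concentration-response up to 50 uM, DMSO as baseline.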

[13] = target: human Phosphodiesterase 10 (PDE10), PDE10A (gene 10846) (UniProt Q9Y233); assay: NVS_ENZ_hPDE10: NovaScreen (NVS) Enzymatic Assay for human Phosphodiesterase 10 (PDE10) (AID 2283195)
Summary of the method: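 PDE10A, cell-free; 1 h incubation; fluorescence intensity + electrophoretic mobility shift separating substrate/product; DMSO = baseline; 25 uM duplicate primary, CRC up to 50 uM.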

[14] = target: human Phosphoinositide 3-kinase alpha (PI3Ka), PIK3CA (gene 5290) (UniProt P42336); assay: NVS_ENZ_hPI3Ka: NovaScreen (NVS) Enzymatic Assay for human Phosphoinositide 3-kinase alpha (PI3Ka) (AID 2283196)
Summary of the method: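 Fluorescence/mobility-shift readout of substrate conversion by recombinant enzyme, 1 h post-dosing. Primary screen in duplicate at 25 uM; actives (e.g. ≥30% inhibition) retested in singleton concentration-response, top concentration 50 uM.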

[15] = target: human Ephrin type-A Receptor 2 (EphA2), EPHA2 (gene 1969) (UniProt P29317); assay: NVS_ENZ_hEphA2: NovaScreen (NVS) Enzymatic Assay for human Ephrin type-A Receptor 2 (EphA2) (AID 2283155)
Summary of the method: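 Cell-free recombinant EphA2 kinase with specific substrate, 1 h, fluorescence with electrophoretic mobility-shift separation of substrate and product. Primary screen at 25 uM in duplicate; hits retested in singleton concentration-response up to 50 uM, referenced to DMSO.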

[16] = target: human Mitogen-Activated Protein Kinase 1 (MAPK 1), MAPK1 (gene 5594) (UniProt P28482); assay: NVS_ENZ_hMAPK1: NovaScreen (NVS) Enzymatic Assay for human Mitogen-Activated Protein Kinase 1 (MAPK 1) (AID 2283175)
Summary of the method: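 Cell-free recombinant human MAPK1 enzymatic assay, fluorescence/electrophoretic mobility shift read at 1 h; loss of signal vs DMSO. Primary screen in duplicate at 25 uM; actives (e.g. ≥30% inhibition) run as concentration-response up to 50 uM.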

[17] = target: human Fibroblast Growth Factor Receptor 1 (FGFR1), FGFR1 (gene 2260) (UniProt P11362); assay: NVS_ENZ_hFGFR1: NovaScreen (NVS) Enzymatic Assay for human Fibroblast Growth Factor Receptor 1 (FGFR1) (AID 2283159)
Summary of the method: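 Cell-free recombinant kinase with fluorescent substrate, product separated by electrophoretic mobility shift; read 1 hour after dosing, loss of signal relative to DMSO. Initial screen in duplicate at 25 uM, actives followed in concentration series.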

[18] = target: human Phosphodiesterase 5 (PDE5), PDE5A (gene 8654) (UniProt O76074); assay: NVS_ENZ_hPDE5: NovaScreen (NVS) Enzymatic Assay for human Phosphodiesterase 5 (PDE5) (AID 2283194)
Summary of the method: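 Recombinant human PDE5 with specific substrate, read 1 h after dosing by fluorescence with electrophoretic mobility-shift separation of substrate and product. Initial single-concentration duplicate screen at 25 uM, actives followed in concentration series; loss of activity versus DMSO.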

[19] = target: human Protein Phosphatase, Mg2+/Mn2+ Dependent 1A (PPM1A), PPM1A (gene 5494) (UniProt P35813); assay: NVS_ENZ_hPPM1A: NovaScreen (NVS) Enzymatic Assay for human Protein Phosphatase, Mg2+/Mn2+ Dependent 1A (PPM1A) (AID 2283198)
Summary of the method: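 Cell-free recombinant PPM1A phosphatase assay with fluorescent substrate, read 1 h after dosing by electrophoretic mobility shift. Chemicals screened in duplicate at 25 uM, then in concentration-response up to 50 uM; loss of activity versus DMSO.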

[20] = target: PPP2CA (gene 5515) (UniProt P67775); assay: NVS_ENZ_hPPP2CA: NovaScreen (NVS) Enzymatic Assay for human Protein Phosphatase 2 Aatalytic subunit Alpha (PPP2CA) (AID 2283199)
Summary of the method: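 Recombinant human PPP2CA with fluorescent substrate; product separated from substrate by electrophoretic mobility shift, read 1.33 h after dosing. Duplicate single-point at 25 uM, then singleton concentration-response up to 50 uM; loss of signal versus DMSO.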

With Cc1ccc([N+](=O)[O-])cc1[N+](=O)[O-] as the compound, how does the outcome [1] read?
Its outcome is “inactive”.

And the outcome [2]?
The outcome was “inactive”.

What about the outcome [3] of the same compound?
Its outcome is “inactive”.

What about the outcome [4] of the same compound?
The outcome was “inactive”.

And the outcome [5]?
Its outcome is “inactive”.

And the outcome [6]?
Its outcome is “inactive”.

What about the outcome [7] of the same compound?
The outcome was “inactive”.

What about the outcome [8] of the same compound?
The outcome was “inactive”.

For Cc1c([N+](=O)[O-])cccc1[N+](=O)[O-], which outcome [9] is on record?
Its outcome is “inactive”.

And the outcome [10]?
Its outcome is “inactive”.

And the outcome [11]?
The outcome was “inactive”.

What about the outcome [12] of the same compound?
Its outcome is “inactive”.

What does the source list for Cc1ccc([N+](=O)[O-])c([N+](=O)[O-])c1?
outcome [13]: inactive; AC50 [14]: active: 25 µM

Which AC50 [7] does the source give for N#CBr here?
Its AC50 is active: 4.72 µM.

Which results are given for CC(C)OP(C)(=O)OC(C)C?
outcome [15]: inactive; outcome [16]: inactive

Which outcome [17] does the source give for O=[N+]([O-])c1cccc([N+](=O)[O-])c1 here?
Its outcome is “inactive”.

What about the outcome [10] of the same compound?
The outcome was “inactive”.

What about the outcome [18] of the same compound?
Its outcome is “inactive”.

And the outcome [19]?
Its outcome is “inactive”.

What about the outcome [20] of the same compound?
The outcome was “inactive”.

For Cc1cccc([N+](=O)[O-])c1[N+](=O)[O-], which outcome [9] is on record?
Its outcome is “inactive”.

And the outcome [17]?
The outcome was “inactive”.

And the outcome [11]?
The outcome was “inactive”.

And the AC50 [12]?
Its AC50 is active: 2.84 µM.
